{
  "source": "patent US20160101054A1",
  "about": "“SUSTAINED DELIVERY OF DRUGS FROM BIODEGRADABLE POLYMERIC MICROPARTICLES” (Yale University, priority 2008, published 2016)",
  "target": "EGFR (Homo sapiens, UniProt P00533)",
  "settings": "at 3 mM (~9.5 ng/mg polymer)",
  "data": [
    {"smiles": "COc1cc2ncnc(Nc3cccc(Cl)c3)c2cc1OC", "note": "[AG1478]", "values": [
      {"measurement": "inhibition in A431 cells", "value": "greater than 95%"}
    ]}
  ]
}
